Here are results for one compound from patent publication US20240408072A1, “COMPOSITION FOR PREVENTING OR TREATING GRAVES' DISEASE COMPRISING COMPOUND CONTAINING AN IMIDAZOPYRIDINE STRUCTURE AS ACTIVE INGREDIENT” (ESGELBIO INC., priority 2021, published 2024).

Each structure is given as a SMILES string.

Experiment [1] has as its system Graves' disease-induced mice. The experiment is described as follows: Thyroid size in Graves' disease-induced (Ad-TSHR) mice. Format: in vivo, BALB/c mice. As to conditions: 10 mg/kg daily for three weeks, abdominal cavity, vs Ad-TSHR group, FIG. 7. Here is the method:
(§1) To create a mouse model with induced Graves' disease, 6-week-old female BALB/c mice were used. The thyroid stimulating hormone receptor (TSHR) expressing adenovirus, Ad-TSHR, was purchased from VectorBuilder (Chicago, USA, www.vectorbuilder.com). A diluted solution of Ad-TSHR (3.02×10^12 VP/ml) was prepared, and 40 μl (10^10 VP/40 μl) of the virus was injected into the thigh muscle of the mice. The virus was injected three times at three-week intervals, totaling nine weeks of injections to induce overexpression of TSHR and thereby cause Graves' disease.
(§2) In the Graves' disease-induced mouse model established in <3-1>, the therapeutic effectiveness of the imidazopyridine scaffold-bearing compounds screened in the present disclosure was evaluated. To this end, a test group of the Graves' disease-induced mice was treated with the candidate drug NE2-6, identified through screening, at a daily dose of 10 mg/kg for three weeks. PTU was used as a positive control for comparison.
(§3) After extracting the thyroid glands from each mouse, the sizes of the thyroids were visually compared, and the concentration of thyroxine (T4) in the blood was analyzed.

Experiment [2] deals with Graves' disease-induced mice. The experiment is described as follows: Serum thyroxine (T4) in Graves' disease-induced (Ad-TSHR) mice. Format: in vivo, BALB/c mice. As to conditions: 10 mg/kg daily for three weeks, abdominal cavity, FIG. 8. As to the method:
as §1, §2, §3
After administering drugs for three weeks to mice in which Graves' disease was induced by the Ad-TSHR virus over nine weeks, the serum was isolated to measure the concentration of thyroxine (T4).

As to `CCCc1cc(=O)[nH]c(=S)[nH]1` [Propylthiouracil (PTU), Propylthiouracil, reference compound], the “thyroid size (visually compared)” value in experiment [1] is listed as “effectively reduced thyroid sizes”. Also, in experiment [2], the “serum thyroxine (T4) concentration” value is reported as “significant reduction”.
